Source: patent US7432350B2 (priority 2002, dated 2008)
Where two headings read alike, the source gives them in different places.

By UniProt entry, the sequences of proteins in these tests, tags left out.
UniProt Q00955, whole entry S77Y: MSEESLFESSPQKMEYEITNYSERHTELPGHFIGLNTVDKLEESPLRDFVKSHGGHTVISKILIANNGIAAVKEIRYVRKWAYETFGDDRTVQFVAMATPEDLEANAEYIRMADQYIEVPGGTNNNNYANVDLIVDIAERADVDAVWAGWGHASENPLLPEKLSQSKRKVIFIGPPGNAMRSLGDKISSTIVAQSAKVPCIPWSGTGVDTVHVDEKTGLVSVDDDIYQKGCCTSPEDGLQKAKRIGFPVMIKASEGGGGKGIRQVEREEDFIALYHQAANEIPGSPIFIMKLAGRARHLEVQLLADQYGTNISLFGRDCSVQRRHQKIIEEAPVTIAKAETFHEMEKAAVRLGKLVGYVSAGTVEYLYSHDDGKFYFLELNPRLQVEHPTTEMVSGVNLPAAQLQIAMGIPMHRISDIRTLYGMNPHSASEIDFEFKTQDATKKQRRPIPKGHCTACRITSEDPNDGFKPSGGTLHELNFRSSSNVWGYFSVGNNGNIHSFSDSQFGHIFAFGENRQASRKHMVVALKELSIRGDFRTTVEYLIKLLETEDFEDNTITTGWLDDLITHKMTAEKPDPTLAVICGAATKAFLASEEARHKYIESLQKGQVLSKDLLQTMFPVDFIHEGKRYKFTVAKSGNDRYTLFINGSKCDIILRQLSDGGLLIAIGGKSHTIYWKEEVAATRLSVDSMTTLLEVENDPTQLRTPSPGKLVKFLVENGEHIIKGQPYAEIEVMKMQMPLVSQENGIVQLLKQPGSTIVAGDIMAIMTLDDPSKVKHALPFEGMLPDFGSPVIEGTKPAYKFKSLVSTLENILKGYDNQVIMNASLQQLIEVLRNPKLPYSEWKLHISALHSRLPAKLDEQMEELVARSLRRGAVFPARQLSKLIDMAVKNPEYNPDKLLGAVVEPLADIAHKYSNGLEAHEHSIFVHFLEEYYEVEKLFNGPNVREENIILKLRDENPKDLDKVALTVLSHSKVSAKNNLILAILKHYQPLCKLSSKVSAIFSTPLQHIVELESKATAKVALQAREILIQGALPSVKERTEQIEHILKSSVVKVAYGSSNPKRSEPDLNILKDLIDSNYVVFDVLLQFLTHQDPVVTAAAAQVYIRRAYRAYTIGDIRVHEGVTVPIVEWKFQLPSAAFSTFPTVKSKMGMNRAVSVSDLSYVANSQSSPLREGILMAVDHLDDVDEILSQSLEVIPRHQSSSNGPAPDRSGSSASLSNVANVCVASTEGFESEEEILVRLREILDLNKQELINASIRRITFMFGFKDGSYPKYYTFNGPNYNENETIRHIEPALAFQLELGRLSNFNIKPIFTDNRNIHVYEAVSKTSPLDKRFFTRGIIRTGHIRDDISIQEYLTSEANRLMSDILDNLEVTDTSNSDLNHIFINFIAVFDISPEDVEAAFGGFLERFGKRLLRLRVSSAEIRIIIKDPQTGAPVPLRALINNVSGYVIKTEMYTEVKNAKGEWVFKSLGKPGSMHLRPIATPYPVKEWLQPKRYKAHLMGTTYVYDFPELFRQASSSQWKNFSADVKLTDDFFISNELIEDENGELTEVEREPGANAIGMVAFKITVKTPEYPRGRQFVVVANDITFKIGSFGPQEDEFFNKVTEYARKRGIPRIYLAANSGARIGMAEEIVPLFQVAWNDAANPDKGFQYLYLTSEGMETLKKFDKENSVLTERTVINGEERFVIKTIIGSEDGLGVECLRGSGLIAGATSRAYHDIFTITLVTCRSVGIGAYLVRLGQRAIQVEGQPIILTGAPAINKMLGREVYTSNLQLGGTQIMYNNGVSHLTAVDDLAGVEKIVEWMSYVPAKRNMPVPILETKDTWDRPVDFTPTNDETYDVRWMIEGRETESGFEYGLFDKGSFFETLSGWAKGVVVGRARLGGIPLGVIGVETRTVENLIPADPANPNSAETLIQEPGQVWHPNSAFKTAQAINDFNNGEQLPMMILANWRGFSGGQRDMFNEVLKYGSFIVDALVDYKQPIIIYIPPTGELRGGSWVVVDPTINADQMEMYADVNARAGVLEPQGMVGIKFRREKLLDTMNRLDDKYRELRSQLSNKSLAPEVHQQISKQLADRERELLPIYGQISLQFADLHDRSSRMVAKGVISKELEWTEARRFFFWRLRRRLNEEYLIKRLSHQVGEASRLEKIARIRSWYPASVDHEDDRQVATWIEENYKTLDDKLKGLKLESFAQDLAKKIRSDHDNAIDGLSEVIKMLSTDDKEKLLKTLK

Legend:
[1] = biological target: pCS204M (S77Y mutant full length S. cerevisiae ACCase) (Saccharomyces cerevisiae, UniProt Q00955, S77Y); assay type: biochemical; conditions: for sensitivity of pCS204M protein activity to inhibition: 14C isotope exchange assay
[2] = biological target: full-length S. cerevisiae ACCase S77Y mutant (pCS204M) (Saccharomyces cerevisiae, UniProt Q00955, S77Y)

| Compound | sensitivity of pCS204M protein activity to inhibition [1] | Relative Enzymatic Activity (%), pCS204M ([1]; +1.5 ng/mL soraphen A) [%] | Relative Enzymatic Activity (%), pCS204M ([1]; +1.5 μg/mL soraphen A) [%] | Relative Enzymatic Activity (%), pCS204M ([1]; +150 μg/mL soraphen A) [%] | soraphen binding by pCS204M [2] | Relative Enzymatic Activity (%), pCS204M ([1]; +250 μg/ml avidin) [%] |
| --- | --- | --- | --- | --- | --- | --- |
| CO[C@H]1CCCC[C@@H](c2ccccc2)OC(=O)[C@@H](C)[C@@]2(O)O[C@H]([C@@H](C)[C@H](O)[C@H]2OC)[C@@H](C)/C=C/[C@H]1OC [soraphen A] | insensitive | 103 | 101 | 105 | comparable to the non-specific control | – |
| avidin: avidin, inhibitor of the biotin-dependent ACCase activity in Table 4 | sensitive | – | – | – | – | 2.5 |
